Consider one compound from PMC9571408, “Synthesis of Isomeric 3-Benzazecines Decorated with Endocyclic Allene Moiety and Exocyclic Conjugated Double Bond and Evaluation of Their Anticholinesterase Activity” (Molecules, 2022).

Sequences of proteins named here, by UniProt entry; tags and fusion partners are left off. Residues count along the entry.
UniProt P21397, whole entry: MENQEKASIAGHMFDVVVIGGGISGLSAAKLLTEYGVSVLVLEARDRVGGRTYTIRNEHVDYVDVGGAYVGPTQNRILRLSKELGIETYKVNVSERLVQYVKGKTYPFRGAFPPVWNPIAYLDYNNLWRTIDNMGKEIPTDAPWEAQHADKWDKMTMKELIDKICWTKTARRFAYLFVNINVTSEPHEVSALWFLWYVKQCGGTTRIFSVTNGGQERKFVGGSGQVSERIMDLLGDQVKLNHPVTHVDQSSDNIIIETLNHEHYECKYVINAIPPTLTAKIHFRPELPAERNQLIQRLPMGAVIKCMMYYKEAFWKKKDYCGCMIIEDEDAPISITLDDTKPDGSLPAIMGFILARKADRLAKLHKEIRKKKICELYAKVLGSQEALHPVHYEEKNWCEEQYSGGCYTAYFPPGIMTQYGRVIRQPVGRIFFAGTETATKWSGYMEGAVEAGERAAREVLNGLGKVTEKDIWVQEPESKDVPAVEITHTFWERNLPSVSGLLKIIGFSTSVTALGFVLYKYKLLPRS
UniProt P22303, 32-614 limits assumed: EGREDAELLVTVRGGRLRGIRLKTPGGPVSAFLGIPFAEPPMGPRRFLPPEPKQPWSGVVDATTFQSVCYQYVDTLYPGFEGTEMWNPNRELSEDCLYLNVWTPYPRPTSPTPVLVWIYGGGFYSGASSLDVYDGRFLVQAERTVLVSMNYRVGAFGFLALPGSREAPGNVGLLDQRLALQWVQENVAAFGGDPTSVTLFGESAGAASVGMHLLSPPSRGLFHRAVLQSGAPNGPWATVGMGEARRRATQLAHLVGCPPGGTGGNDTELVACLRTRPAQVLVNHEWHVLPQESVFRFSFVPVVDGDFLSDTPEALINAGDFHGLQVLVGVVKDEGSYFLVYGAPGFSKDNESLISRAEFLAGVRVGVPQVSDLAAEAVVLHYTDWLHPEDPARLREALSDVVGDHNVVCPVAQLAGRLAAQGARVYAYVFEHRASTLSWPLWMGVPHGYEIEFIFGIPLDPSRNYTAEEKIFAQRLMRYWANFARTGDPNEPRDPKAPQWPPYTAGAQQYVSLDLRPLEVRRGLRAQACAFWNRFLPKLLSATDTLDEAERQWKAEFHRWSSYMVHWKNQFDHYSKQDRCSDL
UniProt P27338, whole entry: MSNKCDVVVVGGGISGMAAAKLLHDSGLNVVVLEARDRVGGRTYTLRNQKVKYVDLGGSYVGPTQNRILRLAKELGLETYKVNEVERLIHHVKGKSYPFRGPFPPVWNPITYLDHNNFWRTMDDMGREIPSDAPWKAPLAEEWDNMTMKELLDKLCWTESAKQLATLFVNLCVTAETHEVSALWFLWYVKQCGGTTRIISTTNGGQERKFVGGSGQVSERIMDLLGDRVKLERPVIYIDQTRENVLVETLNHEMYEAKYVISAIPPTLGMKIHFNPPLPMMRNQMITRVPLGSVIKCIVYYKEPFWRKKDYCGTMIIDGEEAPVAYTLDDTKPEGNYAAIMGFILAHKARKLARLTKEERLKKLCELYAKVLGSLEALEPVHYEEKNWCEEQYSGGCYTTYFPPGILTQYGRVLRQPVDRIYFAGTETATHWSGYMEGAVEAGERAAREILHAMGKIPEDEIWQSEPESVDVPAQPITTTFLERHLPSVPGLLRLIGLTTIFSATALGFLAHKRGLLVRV

Converted amounts (≈) assume the structure as drawn. “And” between values parts separate entries of the source, which are not always exact repeats. Identical values can stand only once.

In data set [1] the target is human recombinant monoamine oxidase A (Homo sapiens, UniProt P21397). Particulars: cited from earlier work.
The nature of data set [2]: Kinetic aqueous solubility by U-HPLC. Particulars: PBS pH 7.4, 0.15 M KCl, 37 °C.
Data set [3] can be described thus: Hydrolytic stability in water-buffered solution by U-HPLC. Particulars: PBS pH 7.4, 0.15 M KCl, 37 °C (table footnote).
Another data set relates to P-gp. Particulars: earlier P-gp assay; reference not given; cited from earlier work.
The next data set concerns the target human recombinant AChE (Homo sapiens, UniProt P22303). Particulars: cited from earlier work.
Data set [4] has as its target human recombinant monoamine oxidase B (Homo sapiens, UniProt P27338). Particulars: cited from earlier work.

On to `COC(=O)C1=CN(C)CCc2cc(OC)c(OC)cc2C(c2ccc(OC)cc2)=C=C1c1ccccc1`, for which the “hMAO-A % inhibition at 10 μM” value in data set [1] is listed as “(20 ± 5) %”. The same compound yielded a Solubility in data set [2] of 0.200 ± 0.015 µM (≈ 0.0995 µg/mL). For the same compound, the Hydrolytic half-life in data set [3] is on record as >12 h. Moreover, in the data set on P-gp, the P-gp inhibition entry is “potent inhibitors of P-gp in the nanomolar range”. For the same compound, on human recombinant AChE, the IC50 is 5.05 µM; the inhibition constant Ki is 4.5 µM and 4.45 µM. Further, in data set [4], the “hMAO-B % inhibition at 10 μM” value is “(24 ± 5) %”.

One may read the Solubility as the dissolved amount per volume that the medium holds. Low values mean little dissolved substance, high ones much dissolved substance. Usually IC50 stands for the concentration needed to halve the response being measured. Broadly, the Ki is the dissociation constant of the complex between target and ligand, obtained from inhibition or displacement.
